Molecular target: 5-HT3 receptor (Rattus norvegicus, UniProt P35563)
Test: 5-HT3 receptor binding experiment (3H-quipazine binding assay, rat cerebral cortical membrane fraction)
Conditions: read-out: IC50 value; concentration corresponding to 50% inhibition of 3H-quipazine binding

The chains behind the UniProt entries cited, without tags or fusion partners. Residues count along the entry.
UniProt P35563, 24-483 limits assumed: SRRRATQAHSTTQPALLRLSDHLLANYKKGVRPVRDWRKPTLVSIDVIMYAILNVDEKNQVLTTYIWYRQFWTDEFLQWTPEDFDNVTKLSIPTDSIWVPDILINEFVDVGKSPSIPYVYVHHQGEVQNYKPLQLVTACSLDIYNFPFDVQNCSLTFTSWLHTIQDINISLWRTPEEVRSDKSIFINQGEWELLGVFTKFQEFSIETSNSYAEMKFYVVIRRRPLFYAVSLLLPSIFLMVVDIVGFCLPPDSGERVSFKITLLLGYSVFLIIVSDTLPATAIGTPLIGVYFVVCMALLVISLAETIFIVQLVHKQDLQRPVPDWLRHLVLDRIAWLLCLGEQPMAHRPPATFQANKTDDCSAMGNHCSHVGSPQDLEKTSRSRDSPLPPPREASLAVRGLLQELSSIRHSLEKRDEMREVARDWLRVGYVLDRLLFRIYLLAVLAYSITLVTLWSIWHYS

SMILES | IC50 [pM]
Cc1nn2c(C)cccc2c1C(=O)OC1CN2CCC1CC2 (stereo not shown) | 140
Cc1cccc2c(C(=O)OC3CN4CCC3CC4)cnn12 (stereo not shown) | 210
Cc1cccc2c(C(=O)O[C@@H]3CN4CCC3CC4)cnn12 | 110
Cc1cccc2c(C(=O)O[C@H]3CN4CCC3CC4)cnn12 | 1300
